The values that follow come from US20040077651A1, “Remedies for cancer” (priority 2000, published 2004).

The chains behind the UniProt entries cited, without tags or fusion partners. Residues count along the entry.
UniProt O15496, 43-165 limits assumed: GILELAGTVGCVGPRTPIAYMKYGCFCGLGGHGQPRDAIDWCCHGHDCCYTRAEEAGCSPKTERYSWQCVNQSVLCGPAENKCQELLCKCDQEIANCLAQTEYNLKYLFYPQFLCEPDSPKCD

The target in test [1] is T1, Human type-X sPLA2 (Homo sapiens, UniProt O15496). As to the kind of experiment: Human type-X sPLA2-induced oleic acid release in HT-29 cells. To be noted: compound 10 μM, 100 nM human type-X sPLA2, 30 min at 37° C., percentage of the increase caused by type-X sPLA2 (no treatment group = 100).
The target of test [2] is T1, Human type-X sPLA2. As to the kind of experiment: Type-X sPLA2-induced PGE2 production in HT-29 cells. The settings on record: HT-29 cells pretreated with TNF-α; compound 10 μM; 100 nM human type-X sPLA2, 3 h at 37° C.; percentage of PGE2 produced by type-X sPLA2 (no treatment group = 100).

For the compound `CCc1c(C(=O)C(N)=O)c2c(OCC(=O)O)nc(C)cn2c1Cc1cccc(-c2ccccc2)c1`, the Oleic acid release at Human type-X sPLA2 [1] was -3 ··. For the same compound, at Human type-X sPLA2 [2], the PGE2 production was -4.1 ··.
